Assay results from ChEMBL document CHEMBL1135777, “Three-dimensional quantitative structure-activity relationships of mazindol analogues at the dopamine transporter” (J Med Chem, 2002).

By UniProt entry, the sequences of proteins in these tests, tags left out.
UniProt P23977, whole entry: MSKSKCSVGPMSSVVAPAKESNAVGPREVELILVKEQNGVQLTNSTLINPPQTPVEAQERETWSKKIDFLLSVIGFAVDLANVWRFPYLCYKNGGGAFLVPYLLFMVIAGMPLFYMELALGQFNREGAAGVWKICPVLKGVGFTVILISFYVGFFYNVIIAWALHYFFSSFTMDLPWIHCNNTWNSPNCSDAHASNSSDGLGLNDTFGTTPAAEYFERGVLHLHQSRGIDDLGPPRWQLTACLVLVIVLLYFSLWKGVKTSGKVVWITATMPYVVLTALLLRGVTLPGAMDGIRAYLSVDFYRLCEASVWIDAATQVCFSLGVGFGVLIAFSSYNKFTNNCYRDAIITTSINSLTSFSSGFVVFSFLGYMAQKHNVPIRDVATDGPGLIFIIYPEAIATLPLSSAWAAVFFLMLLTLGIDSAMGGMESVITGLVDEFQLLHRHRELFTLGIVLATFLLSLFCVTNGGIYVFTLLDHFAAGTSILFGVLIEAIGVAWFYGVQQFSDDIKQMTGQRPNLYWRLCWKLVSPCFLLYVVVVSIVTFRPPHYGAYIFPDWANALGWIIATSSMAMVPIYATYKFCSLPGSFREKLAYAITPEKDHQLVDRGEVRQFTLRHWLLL

Biological target: Sodium-dependent dopamine transporter (Rattus norvegicus, UniProt P23977)
Test: Ability to displace [3H]WIN-35428 from dopamine transporter in rat caudate putamen tissue
Assay type: tissue-based

IC50 [µM] | SMILES
3.1 | O=C(c1ccc(Cl)cc1)c1ccc(C2=NCCN2)cc1
67 | CC1(O)c2ccccc2C2=NCCN21 (configuration not stated)
